Test results reported in IntAct's records for PubMed 19158663.

B1: Prolyl 3,4-dihydroxylase ofd1 (Schizosaccharomyces pombe (strain ATCC 38366 / 972)), Q11120 (parent)
chain: MGDTQQPTVLDRFAPHALDTSEAERLSREYHKNGPYNHVVIRPLINDTLLRNVRKELMENIHFTEKVTDIYRVWQTGDLANLDGLDKKEQNMLKYLRQVRDALYSEEFRSHVQKITGCGPLSASKKDLSVNVYSKGCHLMNHDDVIGTRCISYILYLVEPDEGWKPEYGGALRLFPTLQPSFPAADFCHSIPPQWNQLSFFRVKPGHSFHDVEEVYVDKPRMAISGWFHYPQPGEPGYDANYCDNTVSTLQSLTMKQMDLELPRFSYYPVVKPEPLSKQDTDILSNYINPLYLTPDGIEKLSKRFFQDSVIVLVEFLNQEFANTLLKRIIDAERQPTPMHSSEVSFPWKTAIPPHKHRYLYLDHEEFGPDIILPMDLQRLPAFQRWIQLVSGLPLRSFHQVGRRFRPGSDFTLATTNDTALLEATLCLSPGTGIANTDNGAYDIYMIGDEDPDVDAAVYRGDQQDDSILLSLPAAWNVFSLVYRDEGVLQFVKYVSRQAESSRWDIYSQWNPVAE
partner: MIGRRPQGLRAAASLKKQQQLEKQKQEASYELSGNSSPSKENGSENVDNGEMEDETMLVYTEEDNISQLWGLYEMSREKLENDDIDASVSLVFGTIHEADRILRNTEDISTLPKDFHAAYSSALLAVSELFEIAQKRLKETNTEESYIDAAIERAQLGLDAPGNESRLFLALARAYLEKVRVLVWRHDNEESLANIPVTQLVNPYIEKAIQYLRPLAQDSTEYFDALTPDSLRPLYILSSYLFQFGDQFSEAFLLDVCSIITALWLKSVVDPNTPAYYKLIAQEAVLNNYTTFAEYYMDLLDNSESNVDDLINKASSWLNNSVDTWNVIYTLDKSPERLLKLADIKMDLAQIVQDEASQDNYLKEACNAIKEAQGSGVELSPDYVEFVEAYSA

Variants of: B1
Details: with ett1_schpo nro1, Q9USJ7

Row | Variant | effect of a mutation on the interaction
1 | D144A | decreasing interaction

Variants of: B1
Details: with ett1_schpo nro1, Q9USJ7
Remark: another data set of the same source

Row | Variant | effect of a mutation on the interaction
2 | H210A | decreasing interaction

Variants of: B1
Details: with ett1_schpo nro1, Q9USJ7
Remark: another data set of the same source

Row | Variant | effect of a mutation on the interaction
3 | H142A | decreasing interaction
